## AlphaSeq binding of Ab-14 heavy chain variants to a spike HR2 peptide

Data: MIT Lincoln Laboratory AlphaSeq set, Li et al. 2023, doi:10.1038/s41467-023-39022-2, as distributed in FLAb.

All variants were tested on one target, the spike HR2 peptide PDVDLGDISGINAS (SARS-CoV-2).

Parent scFv Ab-14: VH joined to VL by three GGGGS repeats. Changes lie in the heavy chain CDRs alone.
VH: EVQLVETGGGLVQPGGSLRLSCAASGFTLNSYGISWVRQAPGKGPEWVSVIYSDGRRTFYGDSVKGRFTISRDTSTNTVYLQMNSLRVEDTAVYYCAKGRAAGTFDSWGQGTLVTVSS
VL: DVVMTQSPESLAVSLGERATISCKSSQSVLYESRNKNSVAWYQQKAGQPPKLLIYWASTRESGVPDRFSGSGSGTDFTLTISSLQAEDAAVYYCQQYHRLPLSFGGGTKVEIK

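These sequences belong to a second round, designed from the earlier measurements on random variants of the parent. Group labels follow the data file (Ctrl: baseline library sampled from a position-specific scoring matrix, with some repeated check sequences; Rand: our label for a block that the file lists under HC and that is probably the random mutants of the ten best first-round binders; En: ensemble of fine-tuned language models; GP: Gaussian process model; GPLM: also part of the Gaussian process libraries; HC: hill climbing; Gen: genetic algorithm; Gibbs: Gibbs sampling; a sequence that several methods proposed may carry one label only). In AlphaSeq, yeast of one mating type display the scFv and yeast of the other type display the target. The frequency of each diploid, read from paired DNA barcodes, reflects how well the two displayed proteins bind. A regression on co-assayed BCL2-family reference pairs converts the normalised counts of each replicate to an apparent Kd. There are six technical replicates.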

Variants are written as CDR1, CDR2 and CDR3 of the heavy chain (limits as in the source). Parent: GFTLNSYGIS, VIYSDGRRTFYGDSVK, GRAAGTFDS.
The read-out is the apparent dissociation constant on a log10 scale (nM): the lower, the stronger.
The mean shown is taken over the replicates in which the pair was detected.
A pair that was not seen in any replicate is written "no signal"; this usually means weak binding, but a binder can also be missed.

CDR-H1	CDR-H2	CDR-H3	group	log10 Kd (nM), mean	detected
GFDLNEYGIS	VIYADGMRKFYADKVK	GENAGTFNV	En_HC	-0.08	6 of 6
GFDIEEYGIS	VIYADGRRKAYADSVK	GIDVYGKTV	En_Gibbs	-0.37	6 of 6
GFDLDEYGIS	VIYADGKRTAYSDNVK	GEVAGTFDV	En_Gen	0.00	6 of 6
GFELNSYGIS	VIYSDGRRTFYTDSVK	GQAAGTFDS	GPLM_Gen	0.29	6 of 6
GYSLEEYGIS	VIYADGRRTAYADNVK	GMSGNFGMF	En_Gibbs	no signal	0 of 6
GFTLNSYGIS	VIYSDGTRTFYSDSVK	GRAAGTFDS	GP_HC	no signal	0 of 6
GFSLNQYGIS	VIYSDGQRTFYSDSVK	GRAAGTFDS	GPLM_HC	1.47	3 of 6
GFDIEEYGIS	VIYADGIRQAYKDSVK	GWNVGRFSV	En_Gibbs	no signal	0 of 6
GFCLNDYGIS	VIYSDGRRTFYADSVK	GKAAGTFDE	GP_HC	1.71	2 of 6
GFDLNEYGIS	VIYADGRRTFYSDSVK	GENAGFFDT	En_HC	no signal	0 of 6
GFTLDSYGIS	VIYSDGRRTFYGDRVK	GRTAGTFDK	GP_Gibbs	1.40	5 of 6
GFNLNEYGIS	VIYADGQRTSYTDQVK	GVETGAVLE	En_Gibbs	no signal	0 of 6
GFTLNSYGIS	VIYSDGRRTFYQDSVK	GRATGTFSV	Ctrl	no signal	0 of 6
GFNLNQYGIS	VIYSDGRRTFYGDSVK	GRAHGTFDS	Ctrl	no signal	0 of 6
GFDLNEYGIS	VIYADGMRKFYADSVK	GNTAGTFDV	En_HC	-1.21	6 of 6
GFDLNEYGIS	VIYADGRRTYYSDSVK	GNVAGTFDK	En_HC	-0.32	6 of 6
GFTLNEYGIS	VIYSDGRRTQYTDSVK	GRAAGTFDS	GPLM_HC	0.24	5 of 6
GFDLEEYGVS	VIYADGNRSQYIDAVK	GIIGDNVSV	En_Gibbs	no signal	0 of 6
GFTLNEYGIS	VIYSDGRRTMYGDSVK	GRAAGTFDS	Ctrl+GPLM_HC	0.58	12 of 12
GFNLDECGIS	VIYADGKRSAYANKVK	GETGSFFST	En_Gibbs	no signal	0 of 6
GETLTSYGIS	VIYSDGRRTWYGDSVK	GRAAGAFDS	Ctrl	no signal	0 of 6
GFTLNSYGIS	VIYADGRRTFYGDSVK	GRAAGIFDS	Ctrl	no signal	0 of 6
GEHLNSYGIS	VIYSDGRRTFYGDSVK	GRAAGTNPS	Ctrl	no signal	0 of 6
GFDLNSYGIS	VIYSDGRRTFYGDPVK	GKTAGTFDS	GP_Gen	0.19	6 of 6
GFNLNEYGIS	VIYADGNRNMYADSVK	GLHANFFDI	En_Gibbs	no signal	0 of 6
GFTLNSYGIS	VIYADGRRTWIGDSVD	GRQAGTFDS	Ctrl	no signal	0 of 6
GFQLNEYGIS	VIYSDGRRTFYDDQVK	GRTAGTFDS	GP_Gibbs	0.07	6 of 6
GFDLDEYGIS	VIYADGMRTAYADKVK	GENAGTFDL	En_Gen	-0.34	6 of 6
GFWLNSYGIS	VIYSDGRRTFYADSVK	GNAAGTFDS	GPLM_Gen	2.06	3 of 6
GFSLNSYGIS	VIYSDGRRTFYKDDVK	GRTAGTFDS	GP_Gibbs	1.47	6 of 6
GFTLNSYGIS	VIYSDGRRTFYGDSVP	GRFAGTFDS	Ctrl	no signal	0 of 6
GDTLNSYGIS	VIYFDGRRTFYGDSVK	GRAQGTDDP	Ctrl	no signal	0 of 6
GFQIDEYGIS	VIYADGLRTVYSDAVK	GMDTGLFMD	En_Gibbs	no signal	0 of 6
GFTLNLYGIS	VIYSDGRRTFYDDSVK	GQTAGTFDS	GPLM_HC	0.83	1 of 6
GFSLNSYGIS	VIYSDGRRTFYADQVK	GKTAGTFDS	GP_Gen	0.35	6 of 6
GFDLGEYGIS	VIYADGHRTAYSTKVK	GTIGGMFFL	En_Gibbs	no signal	0 of 6
GFELNEYGIS	VIYSDGRRTFYRDSVK	GRTAGTFDS	GP_Gen	2.82	1 of 6
MFDLNSYGIS	VIYSDGRRTFYQDSVK	GNAAGTFDS	GP_Gen	no signal	0 of 6
GFELESYGIS	VIYSDGRRTFYGDSVK	ERAAGTFFS	Ctrl	no signal	0 of 6
GFTLNQYEIS	VIYSDGRRTAYSDSVK	GRAAGFFDS	Rand	no signal	0 of 6
GFDLNEYGIS	VIYADGVRTFYADSVK	GENAGTFDT	En_Gen	-0.40	6 of 6
GFSLNSYGIS	VIYSDGRRTFYADSVK	GKTAGTFDS	GPLM_Gen	0.52	6 of 6
GFDLNEYGIS	VIYADGRRTFYADSVK	GHVAGTFVV	En_HC	-0.29	6 of 6
GFDLDEYGIS	VIYADGMRTAYSDSVK	GNVAGTFDQ	En_Gen	-0.55	6 of 6
GFTLNSYGIS	VIYSDGRRTFYGDSVA	GRATGTFDS	Ctrl	no signal	0 of 6
GFDLDEYGIS	VIYADGMRTAYVDNVK	GEVAGTFDV	En_Gen	-0.39	5 of 6
KFDLNSYGIS	VIYSDGRRTFYGDSVK	GKTAGTFDS	GP_Gen	0.70	5 of 6
GFDLDEYGIS	VIYADGKRTAYADNVK	GQVAGTFDV	En_Gen	-0.66	6 of 6
GFTLNDYGIS	VIYSDGRRTMYGDSVK	GRYAGTFDS	GP_HC	-0.17	1 of 6
GFSLNDYGIS	VIYSDGRRTWYGDSVK	GRAAGTFDS	GP_HC	0.61	6 of 6
GFDLDEYGIS	VIYADGMRVSYDQNVK	GHGGGSFVF	En_Gibbs	no signal	0 of 6
GFQLNSYGIS	VIYSDGRRTFYSDSVK	GEAAGTFDS	GPLM_Gen	0.25	6 of 6
GFDLNEYGIS	VIYADGRRTFYTDSVK	GENAGIFDV	En_HC	0.47	6 of 6
GFDLNEYGIS	VIYADGKRTAYADTVK	GENAGTFDV	En_Gen	1.20	2 of 6
GFQLNTYGIS	VIYSDGRRTFYADSVK	GREAGTFDS	GP_Gibbs	no signal	0 of 6
GFSLNSYGIS	VIYSDGRRTFYSDSVK	GWAAGTFDS	GPLM_Gen	0.55	6 of 6
GFTLNEYGIS	VIYSDGRRTFYGDSVK	GREAVTFDQ	GPLM_HC	no signal	0 of 6
GFDLDEYGIS	VIYADGMRTAYSDSVK	GSNAGTFDI	En_Gen	-0.06	6 of 6
GFDLNEYGIS	VIYADGMRTVYADSVK	GNTAGTFDQ	En_Gen	-1.41	6 of 6
GFDLDEYGIS	VIYADGRRVVYQDKVK	GELAGTVDQ	En_Gibbs	no signal	0 of 6
AFNLEDYGIS	VIYADGVRASYVESVK	GGIAGTFVI	En_Gibbs	0.28	6 of 6
GFNLNSYGIS	VIYSDGRRTAYGDSVK	DRAAGTFDS	Ctrl	no signal	0 of 6
GFDLDEMGIS	VIYADGVRTAYIDQVK	GMKGDFMNT	En_Gibbs	no signal	0 of 6
GMDLNEYGIS	VIYADGQRRAYAANFK	GVNIDGFDL	En_Gibbs	no signal	0 of 6
GFDLNEYGIS	VIYADGQRTFYADSVK	GQTAGTFDV	En_HC	-0.39	6 of 6
GFDLNEYGIS	VIYADGMRTAYADSVK	GNTAGTFDV	En_Gen	-0.39	6 of 6
GFNLNSYGIS	VIYSDGRRTFYVDSVK	GEAAGTFDS	GP_Gen	0.85	6 of 6
GFTLNEYGIS	VIKSDGRRTFYTDSVK	GRFAGTFDA	Rand	1.34	1 of 6
GFDLQEYGIS	VIYADGHRTAYIQKVK	GQIAGGQFD	En_Gibbs	3.87	1 of 6
GFTLNSYGIS	VIYSDGRRTFYGDSVK	GRAACTNDM	Ctrl	1.15	1 of 6
GFTLNSYGIS	VIYSDGRRTFYGDSVK	GRIYGTFDS	Ctrl	no signal	0 of 6
GFTLNSYGIS	VIYSDGRRTFYDDSAK	MQLAGKFDS	Rand	no signal	0 of 6
GFVLEEYGIS	VIYADGMRTAYAEDFK	GLTGGNLHH	En_Gibbs	no signal	0 of 6

Picked from the list: the 11 lowest averages where every replicate gave a value.

CDR-H1	CDR-H2	CDR-H3	group	log10 Kd (nM), mean	detected
GFDLNEYGIS	VIYADGMRTVYADSVK	GNTAGTFDQ	En_Gen	-1.41	6 of 6
GFDLNEYGIS	VIYADGMRKFYADSVK	GNTAGTFDV	En_HC	-1.21	6 of 6
GFDLDEYGIS	VIYADGKRTAYADNVK	GQVAGTFDV	En_Gen	-0.66	6 of 6
GFDLDEYGIS	VIYADGMRTAYSDSVK	GNVAGTFDQ	En_Gen	-0.55	6 of 6
GFDLNEYGIS	VIYADGVRTFYADSVK	GENAGTFDT	En_Gen	-0.40	6 of 6
GFDLNEYGIS	VIYADGMRTAYADSVK	GNTAGTFDV	En_Gen	-0.39	6 of 6
GFDLNEYGIS	VIYADGQRTFYADSVK	GQTAGTFDV	En_HC	-0.39	6 of 6
GFDIEEYGIS	VIYADGRRKAYADSVK	GIDVYGKTV	En_Gibbs	-0.37	6 of 6
GFDLDEYGIS	VIYADGMRTAYADKVK	GENAGTFDL	En_Gen	-0.34	6 of 6
GFDLNEYGIS	VIYADGRRTYYSDSVK	GNVAGTFDK	En_HC	-0.32	6 of 6
GFDLNEYGIS	VIYADGRRTFYADSVK	GHVAGTFVV	En_HC	-0.29	6 of 6

Some sequences occur more than once in the pool; their replicates are pooled.
The range of this assay differs from that of the first round, and the authors advise against merging the two.
Nonspecific signal, from three strains lacking the peptide, appeared in 1% of pairings of all heavy chain designs, centred on 2.08 (5% of these signals below 0.84); values are not corrected for it.
In the paper, a design with two or fewer of six values counts as a poor binder.